The target in this test is TOP2A (Homo sapiens, UniProt P11388). Briefly: K-DNA decatenation assay. The test is classed as biochemical. The settings on record: Figure 3A. Details: full-length human TOP2A and TOP2B protein (TopoGEN and Inspiralis respectively); purchased TopoGEN TG1001 (human TOP2 assay kit). On the procedure: The human TOP2 assay kit (#TG1001, TopoGEN, Buena Vista, CO) and TOP2B (HTB205, Inspiralis, UK) were used for K-DNA decatenation assays. TOP2 enzymes were incubated with 250 ng of kDNA in a reaction buffer containing 50 mM Tris-HCl (pH 8.0), 150 mM NaCl, 10 mM MgCl2, 2 mM ATP, 0.5 mM DTT, and 30 mg/ml BSA in the presence of candidate compounds or etoposide and ICRF193 as control inhibitors in a final volume of 20 µl. The reaction was incubated at 37C for 2 h after which 4 µl stop solution (5× buffer is 5% Sarkosyl, 0.125% bromophenol blue, 25% glycerol) was added. The reaction was resolved by electrophoresis on a 0.8% agarose gel at 60 V and stained with 0.5 µg/ml ethidium bromide for 15 min. DNA bands were visualized using a gel imager (Gel Doc™ EZ System) and quantified using the Image Studio™ Lite Quantification Software.

Sequences of proteins named here, by UniProt entry; tags and fusion partners are left off. A change or cut given only in a name is not applied to a line headed by its entry.
UniProt P11388: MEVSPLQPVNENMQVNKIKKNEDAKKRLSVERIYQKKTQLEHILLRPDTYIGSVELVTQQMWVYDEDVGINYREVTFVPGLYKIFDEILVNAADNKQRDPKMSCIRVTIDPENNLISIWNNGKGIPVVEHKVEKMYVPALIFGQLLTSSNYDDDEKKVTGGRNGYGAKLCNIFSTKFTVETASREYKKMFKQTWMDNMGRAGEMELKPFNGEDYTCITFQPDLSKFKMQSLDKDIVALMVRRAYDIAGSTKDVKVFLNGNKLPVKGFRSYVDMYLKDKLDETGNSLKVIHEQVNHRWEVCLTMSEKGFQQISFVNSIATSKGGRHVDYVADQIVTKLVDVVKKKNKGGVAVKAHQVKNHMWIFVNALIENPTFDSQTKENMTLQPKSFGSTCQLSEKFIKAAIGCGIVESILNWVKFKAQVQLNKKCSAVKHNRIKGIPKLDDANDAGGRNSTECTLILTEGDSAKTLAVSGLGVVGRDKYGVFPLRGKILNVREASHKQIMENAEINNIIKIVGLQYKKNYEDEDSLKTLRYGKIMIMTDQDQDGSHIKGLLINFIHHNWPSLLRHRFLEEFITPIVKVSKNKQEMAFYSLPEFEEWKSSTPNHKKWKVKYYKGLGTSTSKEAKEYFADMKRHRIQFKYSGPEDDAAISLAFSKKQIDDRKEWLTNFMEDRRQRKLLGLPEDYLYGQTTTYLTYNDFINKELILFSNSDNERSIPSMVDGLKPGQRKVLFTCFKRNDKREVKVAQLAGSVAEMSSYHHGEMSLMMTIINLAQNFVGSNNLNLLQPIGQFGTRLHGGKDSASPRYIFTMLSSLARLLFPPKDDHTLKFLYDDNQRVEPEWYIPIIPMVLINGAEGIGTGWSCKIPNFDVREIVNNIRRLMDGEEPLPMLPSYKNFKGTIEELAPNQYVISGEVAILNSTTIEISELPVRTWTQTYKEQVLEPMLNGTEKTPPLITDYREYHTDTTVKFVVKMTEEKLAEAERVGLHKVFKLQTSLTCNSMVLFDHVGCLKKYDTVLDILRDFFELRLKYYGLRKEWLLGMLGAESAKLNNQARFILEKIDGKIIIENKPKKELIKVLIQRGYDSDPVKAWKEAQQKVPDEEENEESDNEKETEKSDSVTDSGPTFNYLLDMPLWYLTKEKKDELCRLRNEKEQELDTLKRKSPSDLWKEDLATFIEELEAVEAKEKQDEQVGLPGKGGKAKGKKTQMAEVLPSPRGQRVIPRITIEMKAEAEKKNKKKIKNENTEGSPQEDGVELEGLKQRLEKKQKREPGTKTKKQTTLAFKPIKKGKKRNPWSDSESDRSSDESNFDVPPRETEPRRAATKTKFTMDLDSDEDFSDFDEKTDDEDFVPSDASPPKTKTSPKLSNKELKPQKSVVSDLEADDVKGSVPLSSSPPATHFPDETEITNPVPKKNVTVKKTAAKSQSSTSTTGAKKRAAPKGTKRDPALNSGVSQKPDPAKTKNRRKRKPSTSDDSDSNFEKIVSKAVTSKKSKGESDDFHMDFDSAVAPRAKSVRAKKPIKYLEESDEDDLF

Regarding `COc1cc([C@@H]2c3cc4c(cc3[C@@H](O[C@@H]3O[C@@H]5CO[C@@H](C)O[C@H]5[C@H](O)[C@H]3O)[C@H]3COC(=O)[C@H]23)OCO4)cc(OC)c1O` [etoposide, reference compound], the “Inhibition of TOP2A mediated K-DNA decatenation” value is “but not”.

For the origin of these results see publication PMC7883873, “Discovery of New Catalytic Topoisomerase II Inhibitors for Anticancer Therapeutics” (Frontiers in Oncology, 2021).
